Measured values as given in ChEMBL document CHEMBL5518212, “Structure-Based Design of Novel G-Protein-Coupled Receptor TAAR1 Agonists as Potential Antipsychotic Drug Candidates” (J Med Chem, 2024).

Key:
[1] = Toxicity in C57BL/6J mouse assessed as reduction in baseline locomotion at 3 mg/kg, po; assay type: organism-based; details: in vivo
[2] = Toxicity in C57BL/6J mouse assessed as induction of catalepsy at 3 to 10 mg/kg, po measured at 30 to 60 mins; assay type: organism-based; details: in vivo, dose lower 3 mg/kg, time lower 30 min, dose upper 10 mg/kg, time upper 60 min
[3] = biological target: T1, Trace amine-associated receptor 1 (Homo sapiens, UniProt Q96RJ0); assay: Agonist activity at Gs-mediated TAAR1 activation (unknown origin) expressed in HEK293 cells pretreated with coelenterazine for 30 mins followed by compound addition by BRET assay; assay type: functional, cell-based
T1 sequence (Q96RJ0 whole entry): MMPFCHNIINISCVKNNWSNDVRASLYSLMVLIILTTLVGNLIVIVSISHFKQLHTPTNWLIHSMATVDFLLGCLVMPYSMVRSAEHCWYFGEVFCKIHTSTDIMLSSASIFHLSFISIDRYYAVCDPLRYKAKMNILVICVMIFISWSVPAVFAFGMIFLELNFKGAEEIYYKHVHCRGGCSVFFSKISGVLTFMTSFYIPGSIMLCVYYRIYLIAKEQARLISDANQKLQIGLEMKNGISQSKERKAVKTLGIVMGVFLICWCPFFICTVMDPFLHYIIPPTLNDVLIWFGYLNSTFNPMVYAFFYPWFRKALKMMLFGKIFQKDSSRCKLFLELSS

- EC50 [3]: 16.3 nM and 21.1 nM
Structure (SMILES): CNC[C@@H]1OCCc2ccsc21 [ULOTARONT]
- Activity [1]: Toxic
- Activity [2]: Non-Toxic

Values joined by “and” are separate entries in the source; they are usually repeats but may differ in a detail not shown here. Equal entries are not always repeated.
